{"source": "paper doi:10.1101/2025.06.17.660082", "about": "(bioRxiv, 2025)", "target": "T1, mouse GIPR on CRE-Luc2P reporter cells (mouse, UniProt Q0P543 19-460)", "T1 sequence (looked up)": "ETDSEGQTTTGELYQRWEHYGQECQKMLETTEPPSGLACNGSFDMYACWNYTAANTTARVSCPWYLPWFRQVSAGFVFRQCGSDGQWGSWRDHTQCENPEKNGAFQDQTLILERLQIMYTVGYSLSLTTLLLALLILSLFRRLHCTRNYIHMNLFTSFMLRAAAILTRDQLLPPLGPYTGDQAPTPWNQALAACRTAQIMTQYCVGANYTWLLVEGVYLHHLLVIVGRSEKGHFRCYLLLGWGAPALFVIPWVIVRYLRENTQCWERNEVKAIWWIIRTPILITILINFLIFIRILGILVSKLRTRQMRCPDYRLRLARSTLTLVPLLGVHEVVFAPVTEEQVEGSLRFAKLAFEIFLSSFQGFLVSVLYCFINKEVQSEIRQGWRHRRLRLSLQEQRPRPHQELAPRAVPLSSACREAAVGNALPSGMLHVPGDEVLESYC", "assay": "cell-based or functional assay", "data": [{"binder": "YAEGTFISDYSIAMDKIHQQDFVNWLLAQKGKKNDWKHNITQ (ligand, UniProt P09681 52-93, looked up)", "note": "[human GIP (gastric inhibitory peptide)]", "values": [{"measurement": "luciferase (cAMP) reporter in CRE-Luc2P cells overexpressing mGIPR, EC50", "value": 2.85, "unit": "nM"}]}]}
